Molecular target: Bcl6 (Homo sapiens (Human), UniProt P41182)
Assay: Bcl-6 protein degradation experiment in Farage cells
Assay type: cell-based
Conditions: read-out: Bcl6 DC50, 24 hours, tested form: TFA

Which DC50 does the source give for CNC(=O)COc1cc2cc(Nc3nc(N4CCC(CN5CCN6c7ccc(C8CCC(=O)NC8=O)cc7CCC6C5)CC4)ncc3Cl)ccc2n(C)c1=O (single isomer, unassigned) here?
The DC50 was less than 0.01 µM.

From US20250333410A1, “COMPOUND FOR INHIBITING OR DEGRADING BCL6 AND USE THEREOF IN PHARMACEUTICS” (XIZANG HAISCO PHARMACEUTICAL CO., LTD., priority 2022, published 2025)
